The test system of one data set is rat glioma cells. In words: Brain BCNU concentration relative to 90% lethal dose against rat glioma cells. As to conditions: 8 mM brain concentration vs LD90 in rat glioma cells, preliminary studies. The class given is cell-based.
For data set [1] the following is noted: PCPP-SA (20:80), initially; cited from earlier work.

Turning to `O=NN(CCCl)C(=O)NCCCl` [BCNU, 1,3-bis(2-chloroethyl)-1-nitrosourea], in the data set with rat glioma cells, the “brain concentration relative to 90% lethal dose in vitro” value is “two orders of magnitude higher”. In addition, the “distance of distribution from the implant site” value in data set [1] is listed as “up to 12 mm”.

Source of the values: patent USRE37410E, “Controlled local delivery of chemotherapeutic agents for treating solid tumors” (priority 1999, dated 2001).
